{"sequences": {"note": "Chains of the proteins cited; added tags and fusions are not shown. Lines headed by an entry give the natural chain unless they say otherwise; changes in a name come on top.", "UniProt P12931": "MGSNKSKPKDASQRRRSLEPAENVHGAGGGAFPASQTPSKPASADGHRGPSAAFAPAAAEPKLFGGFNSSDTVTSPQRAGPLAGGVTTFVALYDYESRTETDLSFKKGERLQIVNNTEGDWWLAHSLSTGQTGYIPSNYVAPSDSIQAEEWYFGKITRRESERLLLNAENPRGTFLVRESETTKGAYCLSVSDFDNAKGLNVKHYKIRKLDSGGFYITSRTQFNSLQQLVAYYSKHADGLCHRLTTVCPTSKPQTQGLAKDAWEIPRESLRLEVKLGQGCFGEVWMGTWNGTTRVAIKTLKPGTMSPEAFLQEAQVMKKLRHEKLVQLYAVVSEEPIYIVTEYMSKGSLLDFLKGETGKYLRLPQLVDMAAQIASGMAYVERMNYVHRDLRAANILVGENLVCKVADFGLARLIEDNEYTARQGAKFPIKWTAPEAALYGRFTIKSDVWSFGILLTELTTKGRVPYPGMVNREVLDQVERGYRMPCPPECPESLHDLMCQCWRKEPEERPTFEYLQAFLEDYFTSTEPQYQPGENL"}, "source": "ChEMBL document CHEMBL1130094", "about": "“Structure-activity relationships for a novel series of pyrido[2,3-d]pyrimidine tyrosine kinase inhibitors” (J Med Chem, 1997)", "molecular_target": "Proto-oncogene tyrosine-protein kinase Src (Homo sapiens, UniProt P12931)", "assay": "Inhibition of C-src tyrosine kinase", "note": "pIC50: −log10 of the molar value."}
{"smiles": "CN1CCN(CCCNc2ncc3cc(-c4c(Cl)cccc4Cl)c(NC(=O)NC(C)(C)C)nc3n2)CC1", "values": [{"measurement": "pIC50", "result": 7.51}]}
